# Earlier results, collected in US5591602A (priority 1993, dated 1997).
# Tested on: κ opioid receptor site
# Settings: Nock et al., 1988; cited from earlier work
smiles,measurement,value
"CN(C(=O)Cc1ccccc1)C1CCC2(CCCO2)CC1N1CCCC1 (single isomer, unassigned)",selective labelling of κ opioid receptor site (in words),selectively label
